# Values joined by “and” are separate entries in the source; they are usually repeats but may differ in a detail not shown here. Equal entries are not always repeated.
# System: Patients undergoing elective colonoscopy
# Assay: Example 1A: sedation for elective colonoscopy, mg/kg bolus dose-ranging with fentanyl pretreatment (Modified OAA/S)
# Conditions: for Time to Fully Alert, Mean / Time to Fully Alert, Median / Time to Fully Recovered, Mean / Time to Fully Recovered, Median / Time to Ready for Discharge, Mean / Time to Ready for Discharge, Median: from withdrawal of colonoscope
# [1] = initial bolus dose <777 mg (second quartile column)
# [2] = total dose 762 to <891 mg, disodium salt
substance,measurement,setting,value
O-phosphonooxymethyl propofol disodium salt,Number of Patients administered a total of 2 doses (initial plus supplemental),initial bolus dose <620 mg,6
same,Number of Patients administered a total of 3 doses (initial plus supplemental),initial bolus dose <620 mg,6
same,Number of Patients administered a total of 4 doses (initial plus supplemental),initial bolus dose <620 mg,4
same,Number of Patients administered a total of 5 doses (initial plus supplemental),initial bolus dose <620 mg,2
same,Number of Patients requiring 0 supplemental doses to maintain sedation throughout the procedure,initial bolus dose <620 mg,7
same,Number of Patients requiring 1 dose to allow start of procedure,initial bolus dose <620 mg,10
same,Number of Patients requiring 1 supplemental dose to maintain sedation throughout the procedure,initial bolus dose <620 mg,10
same,Number of Patients requiring 2 doses to allow start of procedure,initial bolus dose <620 mg,7
same,Number of Patients requiring 2 supplemental doses to maintain sedation throughout the procedure,initial bolus dose <620 mg,5
same,Number of Patients requiring 3 doses to allow start of procedure,initial bolus dose <620 mg,4
same,Number of Patients requiring 4 doses to allow start of procedure,initial bolus dose <620 mg,1
same,"Time to Achieve Sedation (first Modified OAA/S score ≦4), Mean",initial bolus dose <620 mg,4.3 min
same,"Time to Achieve Sedation (first Modified OAA/S score ≦4), Median",initial bolus dose <620 mg,3.0 min
same,"Time to Fully Alert, Mean",initial bolus dose <620 mg,11.5 min
same,"Time to Fully Alert, Median",initial bolus dose <620 mg,12.5 min
same,"Time to Fully Recovered, Mean",initial bolus dose <620 mg,18.4 min
same,"Time to Fully Recovered, Median",initial bolus dose <620 mg,20.5 min
same,"Time to Ready for Discharge, Mean",initial bolus dose <620 mg,32.9 min
same,"Time to Ready for Discharge, Median",initial bolus dose <620 mg,33.0 min
same,Number of Patients requiring 0 supplemental doses to maintain sedation throughout the procedure,[1],11
same,Number of Patients requiring 1 supplemental dose to maintain sedation throughout the procedure,[1],11
same,Number of Patients requiring 2 supplemental doses to maintain sedation throughout the procedure,[1],1
same,Number of Patients administered a total of 1 dose (initial plus supplemental),initial bolus dose ≧955 mg,20
same,Number of Patients administered a total of 2 doses (initial plus supplemental),initial bolus dose ≧955 mg,3
same,Number of Patients administered a total of 3 doses (initial plus supplemental),initial bolus dose ≧955 mg,0
same,Number of Patients administered a total of 4 doses (initial plus supplemental),initial bolus dose ≧955 mg,0
same,Number of Patients administered a total of 5 doses (initial plus supplemental),initial bolus dose ≧955 mg,0
same,Number of Patients requiring 0 supplemental doses to maintain sedation throughout the procedure,initial bolus dose ≧955 mg,21
same,Number of Patients requiring 1 dose to allow start of procedure,initial bolus dose ≧955 mg,22
same,Number of Patients requiring 1 supplemental dose to maintain sedation throughout the procedure,initial bolus dose ≧955 mg,2
same,Number of Patients requiring 2 doses to allow start of procedure,initial bolus dose ≧955 mg,1
same,Number of Patients requiring 2 supplemental doses to maintain sedation throughout the procedure,initial bolus dose ≧955 mg,0
same,Number of Patients requiring 3 doses to allow start of procedure,initial bolus dose ≧955 mg,0
same,Number of Patients requiring 4 doses to allow start of procedure,initial bolus dose ≧955 mg,0
same,"Time to Achieve Sedation (first Modified OAA/S score ≦4), Mean",initial bolus dose ≧955 mg,1.8 min
same,"Time to Achieve Sedation (first Modified OAA/S score ≦4), Median",initial bolus dose ≧955 mg,2.0 min
same,"Time to Fully Alert, Mean",initial bolus dose ≧955 mg,12.0 min
same,"Time to Fully Alert, Median",initial bolus dose ≧955 mg,11.0 min
same,"Time to Fully Recovered, Mean",initial bolus dose ≧955 mg,22.9 min
same,"Time to Fully Recovered, Median",initial bolus dose ≧955 mg,20.5 min
same,"Time to Ready for Discharge, Mean",initial bolus dose ≧955 mg,40.2 min
same,"Time to Ready for Discharge, Median",initial bolus dose ≧955 mg,40.0 min
same,Patients who received alternative (rescue) medication and were considered treatment failures,of the 93 treated patients,two
same,Percentage of patients who required only a single dose to initiate and maintain sedation,second quartile of initial bolus dose,43.5%
same,Percentage of patients who required only a single dose to initiate and maintain sedation,third quartile of initial bolus dose,65.2%
same,"Time to Achieve Sedation (first Modified OAA/S score ≦4), Mean",total dose 762 to <891 mg,2.3 min
same,"Time to Achieve Sedation (first Modified OAA/S score ≦4), Median",total dose 762 to <891 mg,2.0 min
same,"Time to Fully Alert, Mean",total dose 762 to <891 mg,11.3 min
same,"Time to Fully Alert, Median",total dose 762 to <891 mg,11.0 min
same,"Time to Fully Recovered, Mean",total dose 762 to <891 mg,19.0 min
same,"Time to Ready for Discharge, Mean",total dose 762 to <891 mg,36.3 min
same,"Time to Fully Recovered, Median",[2],18 min and 18.0 min
same,"Time to Ready for Discharge, Median",[2],32 min and 32.0 min
same,"Time to Achieve Sedation (first Modified OAA/S score ≦4), Mean",total dose 891 to <1041 mg,3.8 min
same,"Time to Achieve Sedation (first Modified OAA/S score ≦4), Median",total dose 891 to <1041 mg,2.6 min
same,"Time to Fully Alert, Mean",total dose 891 to <1041 mg,11.6 min
same,"Time to Fully Alert, Median",total dose 891 to <1041 mg,11.0 min
same,"Time to Fully Recovered, Mean",total dose 891 to <1041 mg,20.5 min
same,"Time to Fully Recovered, Median",total dose 891 to <1041 mg,19.5 min
same,"Time to Ready for Discharge, Mean",total dose 891 to <1041 mg,38.5 min
same,"Time to Ready for Discharge, Median",total dose 891 to <1041 mg,38.0 min
same,"Time to Achieve Sedation (first Modified OAA/S score ≦4), Mean",total dose <762 mg,2.3 min
same,"Time to Achieve Sedation (first Modified OAA/S score ≦4), Median",total dose <762 mg,2.0 min
same,"Time to Fully Alert, Mean",total dose <762 mg,9.2 min
same,"Time to Fully Alert, Median",total dose <762 mg,8.0 min
same,"Time to Fully Recovered, Mean",total dose <762 mg,19.0 min
same,"Time to Fully Recovered, Median",total dose <762 mg,21.0 min
same,"Time to Ready for Discharge, Mean",total dose <762 mg,33.8 min
same,"Time to Ready for Discharge, Median",total dose <762 mg,35.0 min
same,"Time to Achieve Sedation (first Modified OAA/S score ≦4), Mean",total dose ≧1041 mg,2.3 min
same,"Time to Achieve Sedation (first Modified OAA/S score ≦4), Median",total dose ≧1041 mg,2.0 min
same,"Time to Fully Alert, Mean",total dose ≧1041 mg,12.6 min
same,"Time to Fully Alert, Median",total dose ≧1041 mg,12.0 min
same,"Time to Fully Recovered, Mean",total dose ≧1041 mg,21.8 min
same,"Time to Fully Recovered, Median",total dose ≧1041 mg,20.5 min
same,"Time to Ready for Discharge, Mean",total dose ≧1041 mg,39.9 min
same,"Time to Ready for Discharge, Median",total dose ≧1041 mg,40.0 min
same,Incidence (%) of patients who required supplemental doses to maintain sedation,≧955,8.7%
same,Number of patients who needed supplemental doses to allow the start of procedure,≧955,1
same,Number of patients who required supplemental doses to maintain sedation,≧955,2
same,Percent of patients who needed supplemental doses to allow the start of procedure,≧955,4.3%
